{"source": "ChEMBL document CHEMBL4616673", "about": "(J Med Chem, 2020)", "assay": "Tmax in Sprague-Dawley rat at 5 mg/kg, iv by LC-MS analysis", "type": "ADME, organism-based", "settings": "in vivo"}
{"smiles": "O=C1c2ccccc2C(=O)c2c1nnn2-c1cc(F)c(-c2ccccc2F)c(F)c1", "values": [{"measurement": "Tmax", "value": 4.8, "unit": "min"}]}
